Among the data in patent US6906074B2, “2-phenylpiperazine derivatives” (Nippon Zoki Pharmaceutical Co., Ltd., priority 2002, dated 2005) are IC50 values, retold here.

By UniProt entry, the sequences of proteins in these tests, tags left out.
UniProt P25103, whole entry, looked up: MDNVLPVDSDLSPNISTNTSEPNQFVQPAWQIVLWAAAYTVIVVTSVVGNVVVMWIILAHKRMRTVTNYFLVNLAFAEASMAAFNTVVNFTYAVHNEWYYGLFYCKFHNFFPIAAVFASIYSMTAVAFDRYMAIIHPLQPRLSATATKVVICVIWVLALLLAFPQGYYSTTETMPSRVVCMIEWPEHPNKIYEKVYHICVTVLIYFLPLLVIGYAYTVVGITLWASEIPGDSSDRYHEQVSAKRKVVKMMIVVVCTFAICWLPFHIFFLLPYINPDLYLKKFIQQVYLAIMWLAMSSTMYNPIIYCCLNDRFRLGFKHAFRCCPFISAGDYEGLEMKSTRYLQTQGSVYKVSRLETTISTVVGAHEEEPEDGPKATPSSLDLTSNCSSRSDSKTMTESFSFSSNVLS

The target of this test is human NK1 receptors (Homo sapiens, UniProt P25103). The test is described as follows: Binding assay for human NK1 receptors ((3H)-Sar9-SP, human NK1-CHO cells). Particulars: (3H)-Sar9-SP 0.3 nmol/L.

SMILES strings stand for the structures. pIC50: −log10 of the molar value.

The molecule `O=C1CN(Cc2nn(P(=O)(O)O)c(=O)[nH]2)[C@@H](c2ccccc2)[C@@H](COCc2cc(C(F)(F)F)cc(C(F)(F)F)c2)N1` had a pIC50 of 7.52.
